PMC7327383, “The affinity and selectivity of α‐adrenoceptor antagonists, antidepressants, and antipsychotics for the human α1A, α1B, and α1D‐adrenoceptors” (Pharmacology Research & Perspectives, 2020)
pKd: −log10 of the molar value.

Protein sequences, listed by entry. Tags and fused reporters are not part of them.
UniProt P35368, whole entry: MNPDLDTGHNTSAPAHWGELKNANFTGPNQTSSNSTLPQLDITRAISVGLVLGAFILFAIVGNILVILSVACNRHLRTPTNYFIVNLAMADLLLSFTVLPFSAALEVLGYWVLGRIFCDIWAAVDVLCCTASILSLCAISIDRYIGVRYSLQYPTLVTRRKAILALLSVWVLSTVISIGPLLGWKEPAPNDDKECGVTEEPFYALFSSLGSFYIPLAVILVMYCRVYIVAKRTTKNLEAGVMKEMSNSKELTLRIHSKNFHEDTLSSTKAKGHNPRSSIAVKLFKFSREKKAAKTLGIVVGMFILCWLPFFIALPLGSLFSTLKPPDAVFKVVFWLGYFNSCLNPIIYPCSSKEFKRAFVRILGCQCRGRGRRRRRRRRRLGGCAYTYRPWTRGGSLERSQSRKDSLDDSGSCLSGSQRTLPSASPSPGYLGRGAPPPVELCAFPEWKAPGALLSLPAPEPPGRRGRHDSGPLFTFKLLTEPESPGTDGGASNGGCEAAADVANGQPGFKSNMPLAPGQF

Molecular target: human α1B-adrenoceptor (Homo sapiens, UniProt P35368)
Test: [3H]prazosin whole-cell competition binding, CHO-α1B cells

Work on COC(=O)C1=C(C)NC(C)=C(C(=O)NCCCN2CCC(c3ccccc3)(c3ccccc3)CC2)C1c1ccc([N+](=O)[O-])cc1 (stereo not shown) [SNAP5089] yielded a pKd of 5.64.
